Fold change (FC) data for one compound are collected here from ChEMBL document CHEMBL5113442, “Discovery of agonist-antagonist pairs for the modulation of Ca [2]+ and voltage-gated K+ channels of large conductance that contain beta1 subunits” (Bioorg Med Chem, 2022).

The chains behind the UniProt entries cited, without tags or fusion partners. Where a name states a change or a piece, a line headed by the entry shows the natural chain unless it says otherwise.
UniProt Q62976: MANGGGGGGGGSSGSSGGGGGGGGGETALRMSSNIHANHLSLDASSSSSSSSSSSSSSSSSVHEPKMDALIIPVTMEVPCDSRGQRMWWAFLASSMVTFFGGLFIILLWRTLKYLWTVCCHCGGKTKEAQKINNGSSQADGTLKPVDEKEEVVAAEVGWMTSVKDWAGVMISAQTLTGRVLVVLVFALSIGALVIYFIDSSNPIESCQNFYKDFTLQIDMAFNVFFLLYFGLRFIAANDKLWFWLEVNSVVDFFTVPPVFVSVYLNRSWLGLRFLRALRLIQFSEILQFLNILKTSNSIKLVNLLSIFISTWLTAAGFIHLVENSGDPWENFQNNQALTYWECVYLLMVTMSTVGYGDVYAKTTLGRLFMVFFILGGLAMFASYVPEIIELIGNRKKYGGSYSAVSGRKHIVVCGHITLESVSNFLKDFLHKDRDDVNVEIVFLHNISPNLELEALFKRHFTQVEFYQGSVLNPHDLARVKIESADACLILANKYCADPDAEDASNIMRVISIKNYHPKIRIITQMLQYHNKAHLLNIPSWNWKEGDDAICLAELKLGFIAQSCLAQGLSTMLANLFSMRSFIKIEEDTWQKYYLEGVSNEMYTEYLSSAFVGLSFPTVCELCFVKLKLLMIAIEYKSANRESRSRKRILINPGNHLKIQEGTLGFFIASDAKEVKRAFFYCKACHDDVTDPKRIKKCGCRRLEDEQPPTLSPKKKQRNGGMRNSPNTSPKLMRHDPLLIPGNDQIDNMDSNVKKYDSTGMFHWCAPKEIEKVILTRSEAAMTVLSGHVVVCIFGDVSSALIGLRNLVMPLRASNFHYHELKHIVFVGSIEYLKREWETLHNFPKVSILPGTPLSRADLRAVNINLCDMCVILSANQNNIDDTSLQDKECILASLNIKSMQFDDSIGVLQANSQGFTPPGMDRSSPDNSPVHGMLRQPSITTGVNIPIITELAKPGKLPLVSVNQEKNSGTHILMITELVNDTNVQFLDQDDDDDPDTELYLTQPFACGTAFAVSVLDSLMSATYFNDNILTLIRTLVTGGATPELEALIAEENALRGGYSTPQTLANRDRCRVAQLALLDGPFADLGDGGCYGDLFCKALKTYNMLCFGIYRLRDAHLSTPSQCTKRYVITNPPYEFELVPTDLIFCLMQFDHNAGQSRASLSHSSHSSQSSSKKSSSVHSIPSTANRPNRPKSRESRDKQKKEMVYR

Each structure is given as a SMILES string.

Common to all, as to type: cell-based
Holding throughout (details): filed as agonist

Experiment [1] concerns CHO. The experiment is described as follows: Agonist activity at rat BK calcium channel alphabeta1 expressed in CHO cells assessed as fold change in current amplitude at 10 uM by automated whole cell patch clamp analysis.
The target in experiment [2] is Calcium-activated potassium channel subunit alpha-1 (Rattus norvegicus) (UniProt Q62976). The experiment is described as follows: Agonist activity at rat BK calcium channel alpha expressed in CHO cells assessed as fold change in current amplitude at 10 uM by automated whole cell patch clamp analysis.
In experiment [3] the test system is CHO. The experiment is described as follows: Agonist activity at rat BK calcium channel alphabeta1 expressed in CHO cells assessed as fold increase in current amplitude by automated whole cell patch clamp analysis.

For `O=C1NC(=O)N(c2ccc(F)cc2)C(=O)/C1=C/c1cc(Br)ccc1OCc1cccc([N+](=O)[O-])c1`, the fold change (FC) in the experiment with CHO [1] was found to be 9.86; in experiment [2], 2.52; in the experiment with CHO [3], 10.
